In test [1] the target is T1, CB2 receptor (Homo sapiens, UniProt P34972).
T1 construct: host or cells: CHO-K1-CB2
As to the kind of experiment: cAMP assay (HitHunter) in CHO-K1-CB2 cells, agonist and antagonist modes. It counts as cell-based. Conditions: agonist or antagonist mode; antagonist mode against CP-55940 at EC90. On the technique in general: Cyclic AMP is a second messenger, typically raised through Gs and lowered through Gi signalling.

The chains behind the UniProt entries cited, without tags or fusion partners.
UniProt P34972, whole entry: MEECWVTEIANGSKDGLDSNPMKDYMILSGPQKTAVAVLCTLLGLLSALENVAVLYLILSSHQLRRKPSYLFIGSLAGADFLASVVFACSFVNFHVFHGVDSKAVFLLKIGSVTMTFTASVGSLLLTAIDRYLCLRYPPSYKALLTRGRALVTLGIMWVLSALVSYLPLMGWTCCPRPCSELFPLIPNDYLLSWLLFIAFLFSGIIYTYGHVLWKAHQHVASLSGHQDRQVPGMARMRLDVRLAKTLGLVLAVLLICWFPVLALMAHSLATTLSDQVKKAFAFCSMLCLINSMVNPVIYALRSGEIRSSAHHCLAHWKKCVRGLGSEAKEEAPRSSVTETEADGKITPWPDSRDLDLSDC

Test [2] addresses CB2 receptors. Conditions: range over various ligand binding studies; read-out: binding constant (Ki) for CB2 receptors; cited from earlier work.

By EC50 is commonly meant the concentration that produces a half-maximal response. What is called Ki is the equilibrium dissociation constant of an inhibitor or competing ligand from its target. With `C=C(C)[C@@H]1CCC(C)=C[C@H]1c1c(O)cc(CCCCC)cc1O` [CBD, cannabidiol], the EC50 in test [1] was 7 ± 2 µM. For the same compound, the Ki in test [2] is 2.4 to 10 µM.

The values above are taken from PMC6757234, “Extractions of Medical Cannabis Cultivars and the Role of Decarboxylation in Optimal Receptor Responses” (Cannabis and Cannabinoid Research, 2019).
